Tested on: Nc1ncnc2c1ncn2[C@@H]1O[C@H](COP(=O)(O)OP(=O)(O)OP(=O)(O)O)[C@@H](O)[C@H]1O
Experiment: purified protein
Details: peptide substrate; MgCl2 stated only for autophosphorylation

In the case of PfFIKK8l (Plasmodium falciparum 3D7), the Km is reported as 11.0 ± 0.8 µM, the kcat is reported as 0.267 ± 0.005 s⁻¹ and the kcat/Km is reported as 26700 M⁻¹ s⁻¹.

Source: publication PMC4576209, “Biochemical characterization of FIKK8 – A unique protein kinase from the malaria parasite Plasmodium falciparum and other apicomplexans” (Molecular and Biochemical Parasitology, 2015)
